Here are results for one substance from patent publication US20260034236A1, “NEW DRUG COMPLEX” (KOWA COMPANY, LTD., priority 2022, published 2026).

In the test the test system is EGFR antigen-negative human breast cancer cell line MDA-MB-453. The experiment in a line: Cytotoxic test (CellTiter-Glo), EGFR antigen-negative cells. Type of test: cell-based. The conditions noted are these: no fraction (—), 4 days culture. How it is done: An EGFR antigen-positive human breast cancer cell line MDA-MB-468 (American Type Culture Collection) and an EGFR antigen-negative human breast cancer cell line MDA-MB-453 (RIKEN BRC CELL BANK) were adjusted to a cell concentration of 2.0×10^4 cells/mL and 4.0×10^4 cells/mL with the RPMI1640 medium, respectively, and 100 μL each was added to a 96-well microplate for cell culture and cultured overnight. On the next day, 100 μL of the evaluation specimen diluted with the RPMI medium was separately added to the microplate, and the cells were cultured for 4 days at 37° C. under 5% CO2. After the culturing, CellTiter-Glo™ Luminescent Cell Viability Assay (Promega Corporation) was added to the microplate, and the mixture was stirred and left to stand at room temperature for 10 minutes. The light emission amount was then measured with a plate reader (Molecular Devices, LLC.). The cell viability was calculated by the following equation.
In the equation, a represents an average value (n=3) of light emission amounts of sample wells, and b represents an average value (n=3) of light emission amounts of sample non-added wells.
An IC50 value, which is an agent concentration at which the cell viability is 50%, was calculated with SAS™ 9.4 Software (SAS Institute Japan Ltd.).
(In general: In ATP-based viability assays light output follows the ATP content of the culture.)

Substance “Cetuximab [Comparative Example 2, reference compound]” returned an IC50 greater than 66 nM.

As usually defined, the IC50 is the point on the concentration scale where inhibition reaches its midpoint.
